Values of other authors, collected in patent publication US20250154472A1, “Culture Medium for Expanding Breast Epithelial Stem Cells” (Koninklijke Nederlandse Akademie Van Wetenschappen, priority 2014, published 2025).

Target: T1, ALK5 (TGF-βR1) (Homo sapiens, UniProt P36897)
T1 sequence (P36897 34-503): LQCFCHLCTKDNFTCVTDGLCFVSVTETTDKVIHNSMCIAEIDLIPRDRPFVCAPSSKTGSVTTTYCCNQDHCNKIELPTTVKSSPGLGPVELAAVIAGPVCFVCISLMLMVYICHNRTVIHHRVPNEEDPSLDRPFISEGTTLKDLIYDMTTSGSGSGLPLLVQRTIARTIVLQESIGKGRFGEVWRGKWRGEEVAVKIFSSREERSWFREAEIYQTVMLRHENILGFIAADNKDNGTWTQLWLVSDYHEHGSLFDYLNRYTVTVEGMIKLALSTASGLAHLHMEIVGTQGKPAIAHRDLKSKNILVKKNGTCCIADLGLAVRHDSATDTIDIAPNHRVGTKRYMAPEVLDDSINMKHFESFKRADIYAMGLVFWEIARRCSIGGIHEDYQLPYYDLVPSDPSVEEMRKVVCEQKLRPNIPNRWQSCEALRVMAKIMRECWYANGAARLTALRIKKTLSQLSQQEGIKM
Details: high concentrations; p38 MAP kinase inhibitor off-target; cited from earlier work

SMILES: C[S+]([O-])c1ccc(-c2nc(-c3ccc(F)cc3)c(-c3ccncc3)[nH]2)cc1 (stereo not shown) [SB-203580]
- concentration at which ALK5 is thought to be inhibited: ≥ 10 µM
